Key:
[1] = biological target: human opioid receptor-like (ORL-1) (Homo sapiens (Human), UniProt P41146); experiment: In vitro ORL-1 receptor [35S]GTPγS functional assay; details: for GTPγS ORL-1 Emax [mean ± SEM]: ORL-1 receptor activity response, procedure of Example 22
kappa opioid receptor = kappa opioid receptor (Homo sapiens (Human), UniProt P41145); experiment: In vitro kappa-opioid receptor [35S]GTPγS functional assay
[2] = biological target: recombinant delta opioid receptor expressed in CHO-K1 cells (Homo sapiens (Human), UniProt P41143); experiment: In vitro delta-opioid receptor binding assay ([3H]-Naltrindole displacement)

Row | SMILES | EC50 [1] | GTPγS ORL-1 Emax [mean ± SEM] [1] | EC50 (kappa opioid receptor) | Ki [2]
1 | OCc1nc2ccccc2n1C1C[C@H]2CCC[C@@H](C1)N2[C@H]1C[C@@H]2CCC[C@@H](C2)C1 (stereo partly shown) | 17.5 nM | 33.0 ± 1.3% | > 20000 nM | 
2 | COCCOCCOCCN1CCC[C@@H](c2nc3ccccc3n2[C@H]2C[C@H]3CCC[C@@H](C2)N3[C@H]2C[C@@H]3CCC[C@@H](C3)C2)C1 |  | 23.0 ± 0.6% |  | 
3 | O=C(O)CCN1CCC(c2nc3ccccc3n2[C@H]2C[C@H]3CCC[C@@H](C2)N3[C@@H]2C[C@@H]3CCCC[C@@H](C3)C2)CC1 |  | 104.3 ± 5.9% |  | 
4 | c1ccc2c(c1)nc(C[C@H]1COCCN1)n2[C@H]1C[C@H]2CCC[C@@H](C1)N2[C@@H]1C[C@@H]2CCCC[C@@H](C2)C1 | 17 nM | 61.3 ± 1.5% | > 20000 nM | > 20000 nM
5 | Cc1nnc(Cc2nc3ccccc3n2[C@H]2C[C@H]3CCC[C@@H](C2)N3[C@@H]2C[C@@H]3CCCC[C@@H](C3)C2)[nH]1 | 5.61 nM | 28.8 ± 2.5% |  | 
6 | CS(=O)(=O)NCCN1CCC[C@H]1Cc1nc2ccccc2n1[C@H]1C[C@H]2CCC[C@@H](C1)N2[C@@H]1C[C@@H]2CCCC[C@@H](C2)C1 | 59.3 nM | 58.3 ± 2.3% | > 20000 nM | > 20000 nM
7 | O=C(O)CN1CCCC[C@@H]1c1nc2ccccc2n1[C@H]1C[C@H]2CCC[C@@H](C1)N2[C@@H]1C[C@@H]2CCCC[C@@H](C2)C1 | 104 nM | 38.5 ± 2.1% | 1530 nM | > 20000 nM
8 | CS(=O)(=O)NCCN1CCC[C@@H](Cc2nc3ccccc3n2[C@H]2C[C@H]3CCC[C@@H](C2)N3[C@@H]2C[C@@H]3CCCC[C@@H](C3)C2)C1 | 12.5 nM | 16.3 ± 0.3% |  | 
9 | O=C(O)CN1CCC[C@H](c2nc3ccccc3n2[C@H]2C[C@H]3CCC[C@@H](C2)N3[C@@H]2C[C@@H]3CCCC[C@@H](C3)C2)C1 | 95 nM | 66.7 ± 5.5% | > 20000 nM | > 20000 nM
10 | O=C(O)CN1CCC(Cc2nc3ccccc3n2[C@H]2C[C@H]3CCC[C@@H](C2)N3[C@@H]2C[C@@H]3CCCC[C@@H](C3)C2)CC1 | 37 nM | 85.0 ± 2.6% |  | 
11 | O=C(O)CCN1CCC[C@@H](Cc2nc3ccccc3n2[C@H]2C[C@H]3CCC[C@@H](C2)N3[C@@H]2C[C@@H]3CCCC[C@@H](C3)C2)C1 | 82 nM | 22.8 ± 0.8% |  | 
12 | O=C(O)CN1CCC[C@@H](Cc2nc3ccccc3n2[C@H]2C[C@H]3CCC[C@@H](C2)N3[C@@H]2C[C@@H]3CCCC[C@@H](C3)C2)C1 | 22.8 nM | 15 ± 1% |  | 
13 | O=C(O)CCN1CCC[C@@H]1c1nc2ccccc2n1[C@H]1C[C@H]2CCC[C@@H](C1)N2[C@@H]1C[C@@H]2CCCC[C@@H](C2)C1 | 139 nM | 49.7 ± 9.3% | > 20000 nM | > 20000 nM
14 | CONC(=N)/N=c1\[nH]c2ccccc2n1C1CCN(C2CCCCCCC2)CC1 | 70.8 nM | 107.3 ± 4.2% | 1010 nM | 
15 | O=C(O)CN1CCC(c2nc3ccccc3n2[C@H]2C[C@H]3CCC[C@@H](C2)N3[C@@H]2C[C@@H]3CCCC[C@@H](C3)C2)CC1 |  | 106 ± 3.8% |  | 
16 | c1ccc2c(c1)nc(Cc1cnccn1)n2[C@H]1C[C@H]2CCC[C@@H](C1)N2[C@@H]1C[C@@H]2CCCC[C@@H](C2)C1 | 12.6 nM | 53.7 ± 4.2% |  | 
17 | O=C(O)CNc1nc2ccccc2n1C1C[C@H]2CCC[C@@H](C1)N2[C@H]1C[C@@H]2CCC[C@@H](C2)C1 (stereo partly shown) | 64.8 nM | 21.67 ± 0.33% |  | 
18 | O=C(O)CN1CC[C@H](c2nc3ccccc3n2[C@H]2C[C@H]3CCC[C@@H](C2)N3[C@@H]2C[C@@H]3CCCC[C@@H](C3)C2)C1 | 65 nM | 85.3 ± 4.3% |  | 
19 | O=C(O)CCN1CC[C@H](c2nc3ccccc3n2[C@H]2C[C@H]3CCC[C@@H](C2)N3[C@@H]2C[C@@H]3CCCC[C@@H](C3)C2)C1 |  | 90 ± 3% |  | 
20 | O=C(O)CCN1CC(c2nc3ccccc3n2[C@H]2C[C@H]3CCC[C@@H](C2)N3[C@@H]2C[C@@H]3CCCC[C@@H](C3)C2)C1 | 38.9 nM | 101.7 ± 3.4% |  | 
21 | O=C(O)CCN1CCC[C@H]1Cc1nc2ccccc2n1[C@H]1C[C@H]2CCC[C@@H](C1)N2[C@@H]1C[C@@H]2CCCC[C@@H](C2)C1 | 104 nM | 66 ± 2% | > 20000 nM | > 20000 nM
22 | O=C(O)CN1CCCC[C@H]1c1nc2ccccc2n1[C@H]1C[C@H]2CCC[C@@H](C1)N2[C@@H]1C[C@@H]2CCCC[C@@H](C2)C1 | 121 nM | 40.3 ± 2.2% | > 20000 nM | 
23 | NC(=O)CN1CCC[C@H](c2nc3ccccc3n2[C@H]2C[C@H]3CCC[C@@H](C2)N3[C@@H]2C[C@@H]3CCCC[C@@H](C3)C2)C1 | 6.2 nM | 18.7 ± 3.2% |  | 

Row | SMILES | EC50 [1] | GTPγS ORL-1 Emax [mean ± SEM] [1] | EC50 (kappa opioid receptor) | Ki [2]
24 | c1ccc2c(c1)nc(C[C@@H]1COCCN1)n2[C@H]1C[C@H]2CCC[C@@H](C1)N2[C@@H]1C[C@@H]2CCCC[C@@H](C2)C1 | 4.7 nM | 56.0 ± 2.1% | > 20000 nM | > 20000 nM
25 | O=C(O)CN1CC(c2nc3ccccc3n2[C@H]2C[C@H]3CCC[C@@H](C2)N3[C@@H]2C[C@@H]3CCCC[C@@H](C3)C2)C1 | 37.7 nM | 102 ± 1% |  | 
26 | c1ccc2c(c1)nc(-c1nnc[nH]1)n2[C@H]1C[C@H]2CCC[C@@H](C1)N2[C@@H]1C[C@@H]2CCCC[C@@H](C2)C1 | 5.8 nM | 22.3 ± 1.3% |  | 
27 | O=C(O)CN1CCC[C@@H]1c1nc2ccccc2n1[C@H]1C[C@H]2CCC[C@@H](C1)N2[C@@H]1C[C@@H]2CCCC[C@@H](C2)C1 | 39.6 nM | 41 ± 1% | > 20000 nM | 
28 | O=C(O)CN1CCC[C@@H]1c1nc2ccccc2n1[C@H]1C[C@H]2CCC[C@@H](C1)N2C1CCCCCCCCC1 |  | 125.3 ± 4.3% |  | 
29 | O=C(O)CN1CCC[C@H]1c1nc2ccccc2n1[C@H]1C[C@H]2CCC[C@@H](C1)N2[C@@H]1C[C@@H]2CCCC[C@@H](C2)C1 | 16.2 nM | 55.7 ± 3.7% |  | 
30 | O=C(O)CCN1CC[C@@H](Cc2nc3ccccc3n2[C@H]2C[C@H]3CCC[C@@H](C2)N3[C@@H]2C[C@@H]3CCCC[C@@H](C3)C2)C1 | 62.5 nM | 63.3 ± 3.8% | > 20000 nM | > 20000 nM
31 | Cc1cc(-c2nc3ccccc3n2[C@H]2C[C@H]3CCC[C@@H](C2)N3[C@H]2C[C@@H]3CCC[C@@H](C3)C2)no1 | 14.3 nM | 23.3 ± 0.9% |  | 
32 | c1ccc2c(c1)nc(Cc1nnn[nH]1)n2[C@H]1C[C@H]2CCC[C@@H](C1)N2[C@@H]1C[C@@H]2CCCC[C@@H](C2)C1 | 38.4 nM | 17.3 ± 0.3% |  | 
33 | O=C(O)CNc1nc2ccccc2n1C1C[C@H]2CCC[C@@H](C1)N2C1CCCCCCCCC1 (stereo partly shown) | 220 nM | 120.7 ± 6.7% | > 20000 nM | 
34 | NC(=O)CN1CCC[C@H]1c1nc2ccccc2n1[C@H]1C[C@H]2CCC[C@@H](C1)N2[C@@H]1C[C@@H]2CCCC[C@@H](C2)C1 | 38 nM | 35.3 ± 1.5% | > 20000 nM | > 20000 nM
35 | CCN(CC)C(=O)CN1CC[C@@H](Cc2nc3ccccc3n2[C@H]2C[C@H]3CCC[C@@H](C2)N3[C@@H]2C[C@@H]3CCCC[C@@H](C3)C2)C1 | 28.4 nM | 31.7 ± 3.3% | > 20000 nM | > 20000 nM
36 | O=C(O)CN1CCCC[C@H]1Cc1nc2ccccc2n1[C@H]1C[C@H]2CCC[C@@H](C1)N2[C@@H]1C[C@@H]2CCCC[C@@H](C2)C1 | 101 nM | 40.3 ± 0.7% | > 20000 nM | > 20000 nM
37 | c1ccc2c(c1)nc(-c1cnccn1)n2[C@H]1C[C@H]2CCC[C@@H](C1)N2[C@@H]1C[C@@H]2CCCC[C@@H](C2)C1 | 3 nM | 10.3 ± 0.9% |  | 
38 | CCN(CC)C(=O)CN1CCC[C@@H](Cc2nc3ccccc3n2[C@H]2C[C@H]3CCC[C@@H](C2)N3[C@@H]2C[C@@H]3CCCC[C@@H](C3)C2)C1 | 40 nM | 11 ± 1% |  | 
39 | Cc1nc(C)c(-c2nc3ccccc3n2[C@H]2C[C@H]3CCC[C@@H](C2)N3[C@H]2C[C@@H]3CCC[C@@H](C3)C2)s1 | 71.7 nM | 21 ± 1% |  | 
40 | c1ccc2c(c1)nc(-c1cnccn1)n2[C@H]1C[C@H]2CCC[C@@H](C1)N2[C@H]1C[C@@H]2CCC[C@@H](C2)C1 | 8 nM | 7.0 ± 0.7% |  | 
41 | c1ccc2c(c1)nc(-c1ccno1)n2[C@H]1C[C@H]2CCC[C@@H](C1)N2[C@H]1C[C@@H]2CCC[C@@H](C2)C1 | 16.6 nM | 22.7 ± 1.2% |  | 
42 | COC(=O)/N=c1\n(CC(N)=O)c2ccccc2n1C1CCN(C2CCCCCCC2)CC1 | 124 nM | 66.0 ± 4.7% |  | 
43 | O=C1CC[C@@H](Cc2nc3ccccc3n2[C@H]2C[C@H]3CCC[C@@H](C2)N3[C@@H]2C[C@@H]3CCCC[C@@H](C3)C2)N1 | 3.6 nM | 14.3 ± 1.0% |  | 
44 | CS(=O)(=O)NCCN1CC[C@@H](Cc2nc3ccccc3n2[C@H]2C[C@H]3CCC[C@@H](C2)N3[C@@H]2C[C@@H]3CCCC[C@@H](C3)C2)C1 | 8.9 nM | 43 ± 3% | > 20000 nM | > 20000 nM
45 | COCCOCCOCCN1CCC[C@H](c2nc3ccccc3n2[C@H]2C[C@H]3CCC[C@@H](C2)N3[C@H]2C[C@@H]3CCC[C@@H](C3)C2)C1 |  | 24.3 ± 0.9% |  | 
46 | Cn1ccnc1CN1CCOC[C@H]1Cc1nc2ccccc2n1[C@H]1C[C@H]2CCC[C@@H](C1)N2[C@@H]1C[C@@H]2CCCC[C@@H](C2)C1 | 26.9 nM | 23.3 ± 0.9% |  | 

Reference: patent US9090618B2, “Substituted benzimidazole-type piperidine compounds and uses thereof” (dated 2015)
